Results reported in ChEMBL document CHEMBL5727654 (2020).

By UniProt entry, the sequences of proteins in these tests, tags left out.
UniProt P40763, whole entry: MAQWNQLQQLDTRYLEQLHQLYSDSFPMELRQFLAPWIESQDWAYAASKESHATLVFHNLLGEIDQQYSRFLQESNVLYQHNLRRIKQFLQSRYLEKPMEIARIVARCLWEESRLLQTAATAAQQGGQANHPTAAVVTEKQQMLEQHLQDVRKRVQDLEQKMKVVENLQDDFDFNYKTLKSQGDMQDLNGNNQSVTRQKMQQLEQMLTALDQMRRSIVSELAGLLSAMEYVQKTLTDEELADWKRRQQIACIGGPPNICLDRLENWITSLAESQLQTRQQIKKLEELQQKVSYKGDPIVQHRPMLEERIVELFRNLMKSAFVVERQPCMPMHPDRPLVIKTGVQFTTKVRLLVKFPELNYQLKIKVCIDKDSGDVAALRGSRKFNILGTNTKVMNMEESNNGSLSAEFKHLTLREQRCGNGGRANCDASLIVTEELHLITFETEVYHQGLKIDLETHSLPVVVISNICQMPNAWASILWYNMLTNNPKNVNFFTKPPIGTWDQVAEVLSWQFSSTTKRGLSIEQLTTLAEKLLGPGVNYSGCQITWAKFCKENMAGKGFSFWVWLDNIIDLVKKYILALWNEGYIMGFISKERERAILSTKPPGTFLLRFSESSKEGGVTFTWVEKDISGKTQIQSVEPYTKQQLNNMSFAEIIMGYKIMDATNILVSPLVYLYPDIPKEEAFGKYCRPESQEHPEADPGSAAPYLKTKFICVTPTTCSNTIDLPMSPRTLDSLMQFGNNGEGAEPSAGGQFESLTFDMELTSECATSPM

Molecular target: Signal transducer and activator of transcription 3 (Homo sapiens, UniProt P40763)
Experiment: Bioassay Evaluation: Compound samples (in 3-5 mg quantities) were evaluated in a variety of assays. All compound submissions were fully characterized (1H, 13C, IR, HRMS), satisfied purity criteria (≥95% LC/MC, ELS).
Type: single protein

COc1ccc(C2=Nn3c(nnc3-c3[nH]nc4c3CCC4)SC2)cc1
IC50: 17.9 µM
